Target: Prothrombin (Homo sapiens, UniProt P00734)
Test: Inhibition of human alpha-thrombin assessed as spectrozyme TH hydrolysis after 10 mins by spectrophotometric analysis
Outline: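 Human α-thrombin (~5 nM initial) preincubated 10 min with inhibitor (4 μg/ml to 5 mg/ml stocks) at 25 °C. Buffer: 20 mM Tris-HCl pH 7.4, 100 mM NaCl, 2.5 mM CaCl2, 0.1% PEG 8000. 20 μL of 1 mM Spectrozyme TH then added; initial rate read at 405 nm. Fractional residual activity fitted to logistic equation (Hill slope fixed at 1) for IC50 and efficacy ΔY.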

CCOC(=O)c1c(C)oc2cc(OCc3oc4cc(OC)c(OS(=O)(=O)O)cc4c3C(=O)OCC)c(OC)cc12
IC50: 89 µM
